Where two headings read alike, the source gives them in different places.
Key:
[1] = tested on: pregnant rats and rabbits
TYRO3 = TYRO3 (Homo sapiens, UniProt Q06418); details: in vitro

Sequences of proteins named here, by UniProt entry; tags and fusion partners are left off. Residues count along the entry.
UniProt Q06418, 41-890: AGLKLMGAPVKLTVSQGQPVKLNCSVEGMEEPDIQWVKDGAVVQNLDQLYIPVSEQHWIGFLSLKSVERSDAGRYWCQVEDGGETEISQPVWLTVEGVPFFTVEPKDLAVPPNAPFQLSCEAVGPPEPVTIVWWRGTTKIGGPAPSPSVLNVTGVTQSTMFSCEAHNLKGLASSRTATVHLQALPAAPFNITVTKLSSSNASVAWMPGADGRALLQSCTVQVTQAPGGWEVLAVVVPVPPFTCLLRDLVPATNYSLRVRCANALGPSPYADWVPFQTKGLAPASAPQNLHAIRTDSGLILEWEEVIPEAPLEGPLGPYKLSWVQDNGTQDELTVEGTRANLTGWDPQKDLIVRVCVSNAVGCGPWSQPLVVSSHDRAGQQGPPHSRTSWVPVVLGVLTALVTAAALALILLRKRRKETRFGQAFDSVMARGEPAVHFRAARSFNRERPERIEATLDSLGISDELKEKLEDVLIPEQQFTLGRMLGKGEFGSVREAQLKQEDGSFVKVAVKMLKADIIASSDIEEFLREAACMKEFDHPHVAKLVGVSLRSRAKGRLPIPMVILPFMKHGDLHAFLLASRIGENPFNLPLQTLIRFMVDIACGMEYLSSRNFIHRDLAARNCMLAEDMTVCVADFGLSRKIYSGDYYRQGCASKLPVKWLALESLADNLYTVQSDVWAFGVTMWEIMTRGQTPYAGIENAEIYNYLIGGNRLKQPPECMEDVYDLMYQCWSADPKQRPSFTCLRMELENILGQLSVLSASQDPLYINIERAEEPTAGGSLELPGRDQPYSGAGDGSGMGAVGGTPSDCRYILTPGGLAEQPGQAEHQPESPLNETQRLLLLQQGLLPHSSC

In the case of `COc1cc2nccc(Oc3ccc(NC(=O)C4(C(=O)Nc5ccc(F)cc5)CC4)cc3)c2cc1OC` [cabozantinib], the “Embryofetal findings after administration during organogenesis” value ([1]; in vivo) is reported as “embryolethality at exposures below those occurring clinically at the recommended dose”, the “Embryofetal findings after administration during organogenesis” value ([1]; pregnant animals) is reported as “embryofetal lethality and structural anomalies at exposures that were below those occurring clinically at the recommended dose” and the “Tyrosine kinase activity of TYRO3” value (TYRO3) is reported as “inhibits”.

Reference: patent publication US20190262330A1, “Method of Treating Hepatocellular Carcinoma Using N-(4-(6,7-dimethoxyquinolin-4-yloxy)phenyl)-N′-(4-fluorophenyl)cyclopropane-1,1-dicarboxamide, (2S)-hydroxybutanedioate” (Exelixis, Inc., priority 2017, published 2019)
